Measured values as given in PubChem BioAssay AID1272365 (Small Molecule Screening Facility, UW Madison, 2020).
Only a part is listed here, and it is no random draw. Some tests of the compounds listed are not included; inactive here does not mean inactive elsewhere. Calls of active or inactive are those of the source. Cut-off read from the data, not from the text of the source: active = inhibition mostly above about 37% (no sharp cut-off); inactive = mostly below about 20%.

System: PriA–SSB C-terminal tail interaction (Klebsiella pneumoniae)
Experiment: blocks PriA binding to SSB C-terminal tail, primary screen, biochemical, AlphaScreen (AID 1272365);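 note: plate controls were negative control peptide for no effect and reference peptide for full effect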
Conditions: AlphaScreen SSBct-PriA binding, biotinylated peptide; at 33 µM; stronger effect = higher value

Structure (SMILES)	inhibition
CN(C)CCOC(=O)C(O)(c1ccccc1)C1CCCCC1 (stereo not given)	inactive: -9.31%
O=C(NCC1(N2CCCCC2)CCCCC1)c1cc(F)c(F)cc1Cl	inactive: 7.42%
COc1ccc(C(=O)NCC2(N(C)C)CCCCC2)cc1	inactive: -8%
CCN1CCCC(OC(=O)C2(O)c3ccccc3C=Cc3ccccc32)C1 (stereo not given)	inactive: -11.8%
Cc1cc(C(=O)NCC2(N3CCCCC3)CCCCC2)ccc1[N+](=O)[O-]	inactive: -5.61%
O=C(NCC1(N2CCCCC2)CCCCC1)c1cccc(Br)c1	inactive: -3.56%
Cc1ccccc1C(=O)NCC1(N2CCCCC2)CCCCC1	inactive: -10.1%
CN(C)c1ccc(C(=O)NCC2(N(C)C)CCCCC2)cc1	inactive: 10.6%
CN(C)C1CCCC1OC(=O)C(O)(c1ccccc1)c1ccccc1 (stereo not given)	inactive: -13.2%
CCN(CC)CC(C)C(C)OC(=O)C(O)(c1ccccc1)c1ccccc1 (stereo not given)	inactive: -8.07%
COc1cc(SC)ccc1C(=O)NCC1(N(C)C)CCCCC1	inactive: 3.43%
Cc1ccc(C(=O)NCC2(N3CCCCC3)CCCCC2)cc1	inactive: 15.5%
O=C(NCC1(N2CCCCC2)CCCCC1)c1cc([N+](=O)[O-])ccc1Cl	inactive: 4.89%
CN1[C@@H]2CC[C@H]1CC(OC(=O)C(O)(c1ccccc1)c1ccccc1)C2 (stereo not given in full)	inactive: -3.53%
COc1ccc(Br)c(C(=O)NCC2(N3CCCCC3)CCCCC2)c1	inactive: 2.23%
CC(C)Oc1ccc(C(=O)NCC2(N(C)C)CCCCC2)cc1	inactive: -1.53%
O=C(OCCN1CCCC1)C(O)(c1ccccc1)c1ccccc1	inactive: -3.71%
CN(C)c1cccc(C(=O)NCC2(N(C)C)CCCCC2)c1	inactive: -8.16%
CCN(CC)CCCOC(=O)C(O)(c1ccccc1)c1ccccc1	inactive: -8.15%
O=C(OC1CN2CCC1CC2)C(CO)(c1ccccc1)c1ccccc1 (stereo not given)	inactive: -1.96%
COc1cccc(C(=O)NCC2(N3CCCCC3)CCCCC2)c1	inactive: 5.7%
COc1ccc(Cl)cc1C(=O)NCC1(N(C)C)CCCCC1	inactive: 3.43%
O=C(NCC1(N2CCCCC2)CCCCC1)c1cccc(Cl)c1	inactive: -7.94%
CN(C)C1(CNC(=O)c2ccc(Br)cc2)CCCCC1	inactive: 4.1%
COc1cc(C(=O)NCC2(N(C)C)CCCCC2)c([N+](=O)[O-])cc1OC	inactive: -7.42%
